{"sequences": {"note": "Chains of the proteins cited; added tags and fusions are not shown. Lines headed by an entry give the natural chain unless they say otherwise; changes in a name come on top.", "UniProt P31391": "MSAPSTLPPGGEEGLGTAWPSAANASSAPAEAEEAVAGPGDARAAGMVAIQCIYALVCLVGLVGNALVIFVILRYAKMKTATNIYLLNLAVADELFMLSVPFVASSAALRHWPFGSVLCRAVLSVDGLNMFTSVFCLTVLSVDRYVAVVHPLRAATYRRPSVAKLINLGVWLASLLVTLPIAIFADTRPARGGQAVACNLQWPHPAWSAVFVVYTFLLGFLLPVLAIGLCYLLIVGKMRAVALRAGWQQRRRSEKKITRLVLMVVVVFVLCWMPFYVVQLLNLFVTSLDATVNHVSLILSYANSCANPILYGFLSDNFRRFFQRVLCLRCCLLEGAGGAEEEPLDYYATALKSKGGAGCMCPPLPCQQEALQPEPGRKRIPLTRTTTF"}, "source": "BindingDB's records for doi:10.1007/bfb0000613", "about": "(German Institute of Human Nutrition, 1998)", "biological_target": "Somatostatin receptor type 4 (Homo sapiens, UniProt P31391)", "data": [{"smiles": "C[C@@H](O)[C@@H]1NC(=O)[C@H](CCCCN)NC(=O)[C@@H](Cc2c[nH]c3ccccc23)NC(=O)[C@H](Cc2ccccc2)NC(=O)[C@H](Cc2ccccc2)NC(=O)[C@H](N)CSSC[C@H](C(N)=O)NC(=O)[C@H](Cc2ccccc2)NC1=O", "values": [{"measurement": "Ki", "result": 174, "unit": "nM"}]}]}
